Laboratory results published in patent US10233152B2, “LSD1 inhibitors” (Mirati Therapeutics, Inc., priority 2015, dated 2019).

System: MV4-11 cells
Assay: Inhibition of LSD1-mediated cell proliferation, CellTiter Glo luminescence assay
Conditions: Homo sapiens, MV4-11, 168 h, read-out: Inhibition of LSD1-mediated Cell Proliferation IC50

| SMILES | IC50 [nM] |
| --- | --- |
| OC(COc1ccccc1)CN1C[C@H]2C[C@@H](C1)C2N[C@@H]1C[C@H]1c1ccccc1 (relative stereo) [Example 9, 1-phenoxy-3-[(1R,5S)-6-[[(trans)-2-phenylcyclopropyl]amino]-3-azabicyclo[3.1.1]heptan-3-yl]propan-2-ol] | 3 |
| O=C(O)c1ccncc1OCCN1CCC(N[C@@H]2C[C@H]2c2ccccc2)CC1 [Example 140] | 30 |
| O=C(O)Cc1ccc(OCCN2CCC(N[C@@H]3C[C@H]3c3ccccc3)CC2)cc1F [Example 43, 2-(2-Fluoro-4-(2-(4-(((1R,2S)-2-phenylcyclopropyl)amino)piperidin-1-yl)ethoxy)phenyl)acetic acid] | 10 |
| Cc1cc(OCCN2CCC(N[C@@H]3C[C@H]3c3ccccc3)CC2)ccn1 [Example 36, 1-[2-[(2-methyl-4-pyridyl)oxy]ethyl]-N-[(1R, 2S)-2-phenylcyclopropyl]piperidin-4-amine] | 28 |
| CN(C)C(=O)Cc1ccc(OCCN2CCC(N[C@@H]3C[C@H]3c3ccccc3)CC2)cc1 [Example 18, N,N-Dimethyl-2-(4-(2-(4-(((1R,2S)-2-phenylcyclopropyl)amino)piperidin-1-yl)ethoxy)phenyl)acetamide] | < 1 |
| CNC(=O)NCCN1CCC(N[C@@H]2C[C@H]2c2ccccc2)CC1 [Example 38, 1-methyl-3-(2-(4-(((1R,2S)-2-phenylcyclopropyl)amino)piperidin-1-yl)ethyl)urea] | < 1 |
| O=C(O)/C=C/c1ccc(OCCN2CCC(N[C@@H]3C[C@H]3c3ccccc3)CC2)cc1 [Example 40, (E)-3-(4-(2-(4-(((1R,2S)-2-Phenylcyclopropyl)amino)piperidin-1-yl)ethoxy)phenyl)acrylic acid] | < 1 |
| O=C(O)/C=C/c1ccc(OCC(O)CN2CCC(N[C@@H]3C[C@H]3c3ccccc3)CC2)cc1 (stereo partly drawn) [Example 35, (E)-3-(4-(2-hydroxy-3-(4-(((1R,2S)-2-phenylcyclopropyl)amino)piperidin-1-yl)propoxy)phenyl)acrylic acid] | 3 |
| O=C1CC(N[C@@H]2C[C@H]2c2ccccc2)CC(=O)N1CCOc1ccc(Br)cc1 [Example 47, 1-(2-(4-bromophenoxy)ethyl)-4-(((1R,2S)-2-phenylcyclopropyl)amino)piperidine-2,6-dione] | 885 |
| O=C(O)Cc1ccc(OCCN2CCC(N[C@@H]3C[C@H]3c3ccccc3)CC2)cc1 [Example 15, 2-(4-(2-(4-(((1R,2S)-2-Phenylcyclopropyl)amino)piperidin-1-yl)ethoxy)phenyl)acetic acid] | < 1 |
